Experiments:
human LTA4 hydrolase = human LTA4 hydrolase (Homo sapiens (Human), UniProt P09960); assay: LTA4H Enzyme assay (peptidase, Arg-AMC cleavage); details: read-out: Peptidase IC50; LTA4H Enzyme 1 nM, Arg-AMC substrate 50 μM, room temperature 1 h, fluorescence
[1] = test system: synthesis of LTB4 in human whole blood; assay: LTB4 production inhibition assay in human whole blood (HWB); details: read-out: hWB IC50; heparinized human whole blood, 15 min at 37° C., Calcimycin 20 μM 30 min, plasma LTB4 by HTRF
Experimental: The compounds of the invention are additionally tested in a human whole blood (HWB) assay to determine their ability to inhibit the synthesis of LTB4 in a cellular system. Compounds are combined with heparinized human whole blood and incubated for 15 minutes at 37° C. Calcimycin (20 μM final, prepared in phosphate-buffered saline, pH 7.4) is then added and the mixture is incubated for another 30 minutes at 37° C. The samples are centrifuged for 5 min at low speed (1500×g) and the plasma layer is removed. Plasma LTB4 concentrations are then measured using an antibody-based homogenous time-resolved fluorescence method (CisBio, Bedford, Mass.). In general, the preferred potency range (IC50) of compounds in the HWB assay is between 10 nM to 10 μM, the more preferred potency range is 10 nM to 1 μM, and the most preferred potency range is 10 nM to 100 nM.

Amino acid sequences for entries named in this document (tags omitted).
UniProt P09960, whole entry: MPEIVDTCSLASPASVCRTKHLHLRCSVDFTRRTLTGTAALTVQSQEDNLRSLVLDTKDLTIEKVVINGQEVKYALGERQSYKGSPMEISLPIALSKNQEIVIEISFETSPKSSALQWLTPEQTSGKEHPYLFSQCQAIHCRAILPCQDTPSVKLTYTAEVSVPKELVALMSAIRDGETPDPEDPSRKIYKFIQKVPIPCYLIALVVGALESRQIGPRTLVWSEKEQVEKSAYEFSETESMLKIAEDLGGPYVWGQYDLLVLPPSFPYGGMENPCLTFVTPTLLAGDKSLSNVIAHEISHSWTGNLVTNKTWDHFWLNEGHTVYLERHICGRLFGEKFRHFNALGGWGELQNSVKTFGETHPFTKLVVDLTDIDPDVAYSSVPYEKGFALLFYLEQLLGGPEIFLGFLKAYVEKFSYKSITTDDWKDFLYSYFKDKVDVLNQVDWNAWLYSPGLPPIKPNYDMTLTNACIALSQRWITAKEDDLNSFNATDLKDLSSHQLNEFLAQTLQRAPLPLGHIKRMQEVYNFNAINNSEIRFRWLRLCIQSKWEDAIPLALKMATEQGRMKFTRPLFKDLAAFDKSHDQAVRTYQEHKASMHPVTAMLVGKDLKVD

| Compound | IC50 (human LTA4 hydrolase) | IC50 [1] |
| --- | --- | --- |
| CO[C@@H](C)C(=O)N1CCN(Cc2cn3cc(Oc4ccc(-c5ccn[nH]5)cc4)ccc3n2)CC1 | 1 nM | 280 nM |
| O=C(CO)N1CCN(Cc2cn3cc(Oc4ccc(-c5ccn[nH]5)cc4)ccc3n2)CC1 | 0.79 nM | 240 nM |

— patent US9573957B2 (Boehringer Ingelheim International GmbH, priority 2013, dated 2017)
